{"source": "patent EP4183391A1", "about": "“PHARMACEUTICAL COMPOSITION AND USE THEREOF” (Shenzhen Salubris Pharmaceuticals Co., Ltd., priority 2020, dated 2022)", "conditions": "20 mg/kg (1 : 0), gavage, plasma; analyte deuterated dextromethorphan", "data": [{"compound": "[2H]C([2H])([2H])Oc1ccc2c(c1)[C@]13CCCC[C@@H]1[C@H](C2)N(C([2H])([2H])[2H])CC3", "note": "[Deuterated dextromethorphan]", "values": [{"measurement": "AUClast", "value": 387, "unit": "h^∗ng/ ml"}]}]}
